# AlphaSeq binding of Ab-95 light chain variants to a spike HR2 peptide

Binding partner: SARS-CoV-2 spike HR2 peptide, sequence PDVDLGDISGINAS.

Ab-95 is the parent antibody, in scFv form: VH, then a 15-residue (Gly4Ser)3 linker, then VL. The heavy chain is unchanged in all variants.
VH: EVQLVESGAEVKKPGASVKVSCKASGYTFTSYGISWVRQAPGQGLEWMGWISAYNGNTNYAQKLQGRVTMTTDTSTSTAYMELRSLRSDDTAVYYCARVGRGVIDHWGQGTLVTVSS
VL: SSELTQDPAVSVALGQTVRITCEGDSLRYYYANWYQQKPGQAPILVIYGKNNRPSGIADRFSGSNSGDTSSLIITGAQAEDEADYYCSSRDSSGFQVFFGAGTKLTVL

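The starting antibody came from a phage panning campaign against this peptide. AAYL52 was designed without a model: most single CDR substitutions and a random sample of double and triple ones. Affinity was read by AlphaSeq, a pooled yeast mating assay with surface-displayed partners. Mating (16 h, 30 °C) was followed by selection of diploids and sequencing of their barcodes. The ratio of observed to expected reads was calibrated, replicate by replicate, on BCL2-family standards whose Kd was known from biolayer interferometry. The assay was run in three technical replicates.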

Each variant is given by its three light chain CDRs, as the data file delimits them; those of the parent are EGDSLRYYYAN, GKNNRPS, SSRDSSGFQVF. Values are log10 of the apparent Kd in nM; lower means stronger binding. The mean shown is taken over the replicates in which the pair was detected. "ND" means that the variant was in the library but no mating with the target was seen in that replicate; the authors take this as a sign of poor binding, and no number exists. Entries are sorted by rising average, undetected variants last. As a blank, each scFv also met three strains without target: over library AAYL52, 28% of these pairings were detected, typically at 3.91 and seldom below 2.90. The control count says in how many pairings with the empty strains this scFv gave a signal, with their mean in brackets.

| CDR-L1 | CDR-L2 | CDR-L3 | log10 Kd (nM) by replicate | mean log10 Kd (nM) | empty controls |
|---|---|---|---|---|---|
| EGDSLMYYEAN | GKNNKPS | SSRDSSGFQVF | 2.11 1.96 1.28 | 1.78 | 4/9 (4.15) |
| EGDSLRYVYQN | GKNNRPS | MSRDSSGFQVF | 2.44 1.76 1.54 | 1.91 | 4/9 (3.47) |
| EGVSLRYYYAN | GKNQRDS | SSRDSSGFQVF | 2.16 2.37 1.45 | 1.99 | 0/9 |
| ENDSLQYYYAN | GKNNRPM | SSRDSSGFQVF | 2.55 2.04 1.81 | 2.13 | 0/9 |
| EGDALRYYYAN | GKNDRPS | SSRDSSGFIVF | 2.15 2.36 2.16 | 2.22 | 2/9 (3.19) |
| EGDSLRYYYAN | GKNNRPS | SHRDSNGFDVF | 2.62 2.25 1.98 | 2.28 | 4/9 (3.98) |
| EGDSQRWYYGN | GKNNRPS | SSRDSSGFQVF | 2.31 2.21 2.64 | 2.39 | 2/9 (4.74) |
| EGDSLRYYYNN | GDNNRPS | ISRDSSGFQVF | 2.78 2.60 2.38 | 2.58 | 4/9 (3.67) |
| EGLSLRYIYAN | GKNNRPP | SSRDSSGFQVF | 2.68 3.20 2.18 | 2.69 | 8/9 (3.56) |
| EGDSLRYYQAN | GKFNRPS | SSRDSSGFQVF | 2.86 2.76 2.62 | 2.75 | 4/9 (3.95) |
| EGDSLRYYDAL | GKNNRPS | SSRDDSGFQVF | 2.61 3.03 2.96 | 2.87 | 5/9 (4.17) |
| EGTSLWYYYAN | GKNNRPS | SFRDSSGFQVF | 3.02 2.90 2.91 | 2.94 | 2/9 (4.33) |
| EGDSLRYYYAN | GKNNRPR | SSRDSSLTQVF | 2.45 3.18 3.35 | 2.99 | 2/9 (4.33) |
| EGDSLRYYAAN | GKNNRPS | SKRDMSGFQVF | 3.26 3.29 2.46 | 3.00 | 7/9 (3.88) |
| EGFSLRFYYAN | GKNNRPS | SSRDSSGQQVF | ND 3.15 3.07 | 3.11 | 2/9 (3.72) |
| EGDSLRYYYAN | GKNFRPS | PSRDSSGFQVF | 3.48 3.51 ND | 3.49 | 3/9 (4.36) |
| EMDSDRYYYAN | GKNNRPS | SSRDSSGFQVE | 2.75 4.71 3.05 | 3.50 | 3/9 (3.86) |
| EGDVLRYYYAN | GKNGRLS | SSRDSSGFQVF | 2.88 4.38 ND | 3.63 | 2/9 (4.21) |
| WGDSLRYYYAN | GKNNRPS | SSRDSHGFQLF | 3.15 ND 4.33 | 3.74 | 1/9 (3.54) |
| EGDSLRMYVAN | GPNNRPS | SSRDSSGFQVF | 3.23 ND 4.56 | 3.89 | 5/9 (4.19) |
| EGDSLRYYYAL | GKNNNPS | SSRDSSGFRVF | 4.04 ND ND | 4.04 | 3/9 (4.87) |
| EGDSLRYYYAN | GKNNRPS | SSRDSSSFTVF | 3.62 5.63 2.91 | 4.05 | 3/9 (4.15) |
| ELDSLRYYYAN | GKCNRPS | LSRDSSGFQVF | ND ND 4.13 | 4.13 | 1/9 (4.49) |
| EGDSLRYYYAN | HKNNRPS | SSRDSSGFKVT | 3.99 5.45 3.31 | 4.25 | 3/9 (4.56) |
| EGDSLWYYYNN | GKNNRPS | SSRKSSGFQVF | 4.03 4.66 ND | 4.34 | 2/9 (4.06) |
| EGDSLRYYYAP | GKNMRPS | SSRDSSGNQVF | 4.08 4.81 ND | 4.44 | 4/9 (3.97) |
| EGDSLRYYYAQ | RKNNRNS | SSRDSSGFQVF | 5.09 4.04 4.28 | 4.47 | 1/9 (4.10) |
| EGDSLRYYYAN | GKHNRPS | SSRDSQGFQVL | ND 5.17 ND | 5.17 | 2/9 (3.18) |
| EGDSLRYYYAP | GKNNRPS | SSRSSSCFQVF | ND ND ND | ND | 4/9 (3.86) |
| EGDSLRYYYKL | GKNNRPS | SSRDSSNFQVF | ND ND ND | ND | 0/9 |
| EGDSLRYYYAN | GKNNRNS | SSDDSSIFQVF | ND ND ND | ND | 0/9 |
| EGDSLIYYTAN | GKNERPS | SSRDSSGFQVF | ND ND ND | ND | 0/9 |
| ECDSLRYHYAN | GKNNRPS | SSHDSSGFQVF | ND ND ND | ND | 0/9 |
| GGDSARYYYAN | GKNNRPS | SSRDSSCFQVF | ND ND ND | ND | 1/9 (3.49) |
| EGISLRYYYAN | GFNNRIS | SSRDSSGFQVF | ND ND ND | ND | 4/9 (4.75) |
| EGDSLRYYYAF | GKNPRPN | SSRDSSGFQVF | ND ND ND | ND | 0/9 |

Repeated from above, the 6 best binders with a signal in all replicates:

CDR-L1,CDR-L2,CDR-L3,log10 Kd (nM) by replicate,mean log10 Kd (nM),empty controls
EGDSLMYYEAN,GKNNKPS,SSRDSSGFQVF,2.11 1.96 1.28,1.78,4/9 (4.15)
EGDSLRYVYQN,GKNNRPS,MSRDSSGFQVF,2.44 1.76 1.54,1.91,4/9 (3.47)
EGVSLRYYYAN,GKNQRDS,SSRDSSGFQVF,2.16 2.37 1.45,1.99,0/9
ENDSLQYYYAN,GKNNRPM,SSRDSSGFQVF,2.55 2.04 1.81,2.13,0/9
EGDALRYYYAN,GKNDRPS,SSRDSSGFIVF,2.15 2.36 2.16,2.22,2/9 (3.19)
EGDSLRYYYAN,GKNNRPS,SHRDSNGFDVF,2.62 2.25 1.98,2.28,4/9 (3.98)

Parent in this assay: reference entry 2.31, copy in this library 2.25.

The measurements come from Engelhart et al. 2022 (doi:10.1038/s41597-022-01779-4) through the FLAb antibody collection.